Values quoted from earlier work in US20210093715A1, “ANTI-ANGIOGENESIS THERAPY FOR THE TREATMENT OF BREAST CANCER” (Genentech, Inc., priority 2008, published 2021).

Key:
[1] = tested on: HER2 overexpressing metastatic breast cancer; details: cited from earlier work
[2] = tested on: HER2 overexpressing metastatic breast cancer; details: 222 women with HER2 overexpressing metastatic breast cancer; cited from earlier work

In the case of “trastuzumab: recombinant humanized monoclonal antibody directed against HER2”, the “Overall response rate and time to progression” value ([1]; Herceptin + chemotherapy (paclitaxel or doxorubicin plus cyclophosphamide) vs chemotherapy alone) is listed as “significantly improved”, the overall survival ([1]; addition of Herceptin to chemotherapy) is listed as “prolonged overall survival” and the confirmed complete responses [2] is listed as “six”.
